Screening results from PubChem.
Statin myotox sup: suppression of simvastatin myotoxicity; C2C12 myotubes + simvastatin, ATP luminescence, 48 h; scaled: DMSO 0, geranylgeraniol control 100; 330,000 tested, 0.78% active; rescue of ATP level, % at 7.49 µM; AID 602340;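 active means mean ATP rescue above about 67%, or every replicate alone reaching that limit, limit read from the data, passing the limit was not always enough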;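 further: myotubes were challenged with 10 µM simvastatin during compound exposure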
Yeast UUG start: modulators of start codon recognition fidelity in yeast; S. cerevisiae UUG-firefly luciferase reporter, luminescence/redox ratio; activity score, % at 18.7 µM; 0.13% of 350,000 active;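 active = replicate mean at a twofold rise or more, about +100% in these data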;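 also: firefly luciferase made from a UUG start codon reports start codon fidelity; reporter light over untreated wells divided by growth signal over untreated wells; some hits fall short of that in this replicate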
Cneo AK release: causes C. neoformans cell lysis | adenylate kinase release luminescence, 4 h; normalised: neutral wells 0, clomiphene wells 100 | lysis activity, % at 15 µM | 360,000 tested, 0.2% active | AID 651654;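 active means mean lysis activity across replicates of at least 80%, whatever share of replicates individually reach that level; inactive means mean lysis activity below 80%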
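Assay system: log-phase C. neoformans yeast / Quantity: yeast cell density of 5 × 10^6 cells/mL / Medium: fresh YPD growth medium / Compound: single dose / Timing: static 4 h at 37 °C with compound, 1 h detection / Measured by: adenylate kinase release luminescence / Read-out: lysis from increased AK signal / Benchmarks: Clomiphene as positive lysis control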
miR-122 sensor: inhibitors of miR-122 in Huh7 cells. Huh7 miR-122 Renilla luciferase sensor, 48 h; neutral wells = 0, positive control = 100. activation (reporter increase), % at 12.5 µM. 340,000 tested, 0.3% active. AID 602342;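 active means mean replicate activation score at least 90 and every replicate individually at or above 90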;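 further: higher luciferase means less miR-122 activity so hits act as miR-122 inhibitors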
* = called active by the depositor; nt = no result given; [ ] = remark or other dose. Shown are actives, neighbours in structure and some others; about 1.2% of the full set was active somewhere.

Every second line gives: Statin myotox sup | Yeast UUG start | Cneo AK release | miR-122 sensor
1. CCCc1nnc(N2C(=O)c3cccc4cccc(c34)C2=O)s1
  85.2* | -16.3 | 0.5 | -1.2
2. Cc1ccc(Cl)cc1NC(=S)N(CCCN1CCOCC1)Cc1ccccn1
  nt | -31.0 | -1.0 | 160.3*
3. S=C(Nc1ccccc1Cl)N(CCCN1CCOCC1)Cc1ccccn1
  3.9 | -9.7 | -2.2 | -0.1
4. COC(CN(C(=O)CCl)C(C(=O)NC1CCCCC1)c1ccc(Cl)cc1)OC (centres undefined)
  71.0* | -1.8 | 1.0 | 3.0
5. COCCNC(=O)[C@@]1(Cc2ccccc2)C=C[C@@H](C)N1C(C)=O
  120.9* | -5.9 | -1.2 | -1.5
6. CN(C)C(=O)c1cccc(-c2ccc([C@H]3[C@H](CO)N4CCCCN(C(=O)C5CCC5)C[C@@H]34)cc2)c1
  nt | -10.2 | 0.5 | 6.3[16.7 µM]
7. COc1cc(NC(=O)c2cccs2)c(C(=O)OCC(=O)NCc2ccco2)cc1OC
  105.5* | -28.4 | -0.8 | -2.6
8. CNC(=O)NC(=O)COC(=O)c1n[nH]c2ccccc12
  -5.7 | -17.3 | 1.9 | -3.7
9. O=C(COC(=O)c1cccs1)NCc1ccco1
  131.3* | -5.5 | -0.5 | -6.3
10. O=C(COC(=O)c1n[nH]c2ccccc12)NC(=O)NCc1ccco1
  72.6* | 2.7 | 1.3 | -0.8
11. Cc1ccc(C(=O)Nc2ccc(C)c(S(=O)(=O)Nc3ccccc3Cl)c2)s1
  nt | -6.7 | 1.0 | 413.2*
12. Cc1ccc(NS(=O)(=O)c2cc(C(=O)NCCSC3CCCCC3)ccc2C)cc1
  19.1 | -4.8 | 4.7 | 121.7*
13. CC(=O)Nc1cc(S(=O)(=O)Nc2cccc(C)c2)c(C)cc1C
  10.9 | -5.6 | 0.4 | 144.4*
14. Cc1ccc(NC(=O)CNC(=O)c2cccs2)cc1S(=O)(=O)Nc1ccc(Cl)cc1
  19.7 | 1.8 | -1.0 | 98.2*
15. COc1ccc(NC(=O)CNC(=O)c2cccs2)cc1Cl
  -36.9 | -12.9 | 6.1 | -6.1
16. C[C@@H]1CN([C@H](C)CO)S(=O)(=O)c2ccc(C#CCN(C)C)cc2O[C@H]1CN(C)C(=O)C1CC1
  9.4 | 38.4 | nt | 1.2[16.7 µM]
17. C[C@H](CO)N1C[C@H](C)[C@@H](CN(C)C(=O)NC2CCCC2)Oc2ncc(Br)cc2C1=O
  nt | 34.5 | -4.9 | -21.9[16.7 µM]
18. CS(=O)(=O)Nc1ccccc1C(=O)NCCSc1ccc(Cl)cc1
  -11.4 | -0.2 | -2.8 | 5.7
19. Cc1ccc(C)c(S(=O)(=O)Nc2ccc(C(=O)NCCCN(C)C)cc2)c1
  28.8 | -15.9 | 0.4 | -27.8
20. Cc1ccc(SCCNC(=O)c2ccccc2)cc1
  -20.6 | -7.8 | 1.1 | 0.3
21. Cc1ccc(SCCNC(=O)c2ccc(C)c(S(=O)(=O)Nc3cccc(C)c3)c2)cc1
  49.0 | -8.8 | -1.7 | 105.1*
22. Cc1ccc(NS(=O)(=O)c2cc(C(=O)NCCSc3ccc(C)cc3)ccc2C)cc1
  24.1 | -11.0 | 11.4 | 114.8*
23. Cc1ccc(C(=O)NCCSc2ccc(Cl)cc2)cc1S(=O)(=O)Nc1ccccc1
  11.0 | -10.1 | -0.1 | 130.9*
24. Cc1nn(-c2cc(N3CCCCC3)ccc2N)c(=O)c2ccccc12
  -21.0 | nt | nt | -6.3
25. Cc1nn(-c2cc(N3CCCCCC3)ccc2[N+](=O)[O-])c(=O)c2ccccc12
  109.5* | -12.5 | 0.3 | 14.6
26. COc1cccc(C(=O)N2C[C@H]3[C@@H](c4ccccc42)[C@@H](CO)N3Cc2ccccc2Cl)c1
  53.7 | 4.5 | -3.9 | 7.1[16.7 µM]
27. COCCCN1C(=O)c2ccc(C(=O)O)cc2C1=O
  100.0* | -2.2 | -0.1 | 5.2
28. CNC(=O)c1ccccc1S(=O)(=O)c1ccccc1C#N
  100.7* | -0.5 | -4.0 | 0.9
29. C[C@H](CO)N1C[C@H](C)[C@@H](CN(C)C)Oc2ncc(-c3ccc(C(=O)N(C)C)cc3)cc2C1=O
  1.9 | -4.4 | 5.9 | 5.1[16.7 µM]
30. COc1ccc(OC)c(NC(=O)CCN2CCN(c3ccccc3F)CC2)c1
  nt | -0.6 | 8.1 | -3.0
31. COc1cccc(NC(=O)CCN2CCN(c3ccccc3F)CC2)c1
  77.6* | -17.9 | -0.1 | -5.8
32. COc1ccc(Cc2nc(-c3cccc(C)c3)no2)cc1
  13.5 | -3.9 | -1.8 | -2.7
33. Cc1cccc(-c2noc(Cc3ccc(Cl)cc3)n2)c1
  121.0* | -18.9 | -2.4 | -4.0
34. Cc1csc(SCC(=O)Nc2cccc(S(=O)(=O)N3CCCC3)c2)n1
  135.8* | -19.9 | 0.6 | -2.9
35. C[C@@H]1CN([C@H](C)CO)C(=O)c2cc(NC(=O)Nc3ccccc3)ccc2O[C@@H](C)CCCCO[C@@H]1CN(C)Cc1ccc(Cl)c(Cl)c1
  117.4* | 5.6 | -11.2 | -2.7[16.7 µM]
36. C[C@@H]1CCCCO[C@@H](CN(C)Cc2ccc(Cl)c(Cl)c2)[C@H](C)CN([C@@H](C)CO)C(=O)c2cc(NC(=O)Cc3ccccc3)ccc2O1
  105.7* | 14.8 | -0.7 | -16.5[16.7 µM]
37. CCn1c(=S)[nH]c2cc(Cl)ccc21
  8.5 | nt | nt | nt
38. CCCn1c(=S)[nH]c2cc(Cl)ccc21
  34.4 | -22.4 | 151.1* | -2.9
39. COC(=O)c1cnn2c1C(=O)N(Cc1cccs1)CC2
  -2.3 | -9.9 | 2.6 | 2.3
40. COc1ccc(CN2CCn3ncc(C(=O)Nc4cccc(C)c4)c3C2=O)cc1
  124.0* | -16.2 | -0.9 | 6.4
41. CC(C(=O)N1CCCc2ccccc21)N1C(=O)c2ccccc2C1=O (centres undefined)
  109.4* | -16.4 | 10.3 | -2.5
42. CC(Oc1ccccc1)C(=O)N1CCCc2ccccc21 (centres undefined)
  14.8 | 5.9 | 3.3 | 2.3
43. [O-]/C(=C(\C(=S)NCCN1CCOCC1)[n+]1ccccc1)c1ccc(Cl)s1
  -6.7 | -17.2 | -4.9 | 1.4
44. [O-]/C(=C(\C(=S)NCc1ccccc1)[n+]1ccccc1)c1ccc(Cl)s1
  3.8 | -24.7 | 2.3 | 173.1*
45. Cc1ccccc1OC1C(=O)N(Cc2ccc3c(c2)OCO3)C1c1sccc1C (centres undefined)
  -17.6 | nt | nt | 157.9*
46. C[C@H](CO)N1C[C@H](C)[C@H](CN(C)Cc2ccncc2)Oc2ccc(NC(=O)c3ccncc3)cc2CC1=O
  -1.0 | 1.6 | -1.2 | 4.6[16.7 µM]
47. C[C@@H]1CN([C@@H](C)CO)C(=O)Cc2cc(NC(=O)c3ccncc3)ccc2O[C@H]1CN(C)Cc1ccncc1
  -2.3 | 21.6 | 100.0* | 2.5[16.7 µM]
48. C[C@@H]1CN([C@@H](C)CO)C(=O)Cc2cc(NC(=O)c3ccncc3)ccc2O[C@@H]1CN(C)Cc1ccc(-c2ccccc2)cc1
  -11.9 | 5.4 | 2.5 | -9.6[16.7 µM]
49. C[C@H](CO)N1C[C@H](C)[C@@H](CN(C)Cc2ccc(-c3ccccc3)cc2)Oc2ccc(NC(=O)c3ccncc3)cc2CC1=O
  123.6* | -3.2 | 1.1 | -2.5[16.7 µM]
50. C[C@H](CO)N1C[C@H](C)[C@@H](CN(C)Cc2ccc(Cl)c(Cl)c2)Oc2ccc(NC(=O)c3ccncc3)cc2CC1=O
  132.8* | nt | 0.6 | -3.5[16.7 µM]
51. Cc1ccc(CSc2nnc3nc(C)cc(C)n23)cc1
  138.9* | -12.9 | 2.1 | -3.3
52. C[C@H](CO)N1C[C@H](C)[C@H](CN(C)C(=O)Cc2ccccn2)Oc2ncc(C#CC3CCCCC3)cc2C1=O
  -7.1 | -5.8 | 2.7 | -12.4[16.7 µM]
53. CC(=O)Oc1ccc2c(C)cc(=O)oc2c1
  nt | nt | nt | -6.4
54. COC(=O)C(CC(C)C)Oc1ccc2c(C)cc(=O)oc2c1 (centres undefined)
  nt | -4.7 | 20.0 | 152.2*

Given with one line to a screen: entries from further up
45) Cc1ccccc1OC1C(=O)N(Cc2ccc3c(c2)OCO3)C1c1sccc1C (centres undefined)
48) C[C@@H]1CN([C@@H](C)CO)C(=O)Cc2cc(NC(=O)c3ccncc3)ccc2O[C@@H]1CN(C)Cc1ccc(-c2ccccc2)cc1
53) CC(=O)Oc1ccc2c(C)cc(=O)oc2c1
42) CC(Oc1ccccc1)C(=O)N1CCCc2ccccc21 (centres undefined)
54) COC(=O)C(CC(C)C)Oc1ccc2c(C)cc(=O)oc2c1 (centres undefined)
entry no.	45	48	53	42	54
Statin myotox sup	-17.6	-11.9	nt	14.8	nt
Yeast UUG start	nt	5.4	nt	5.9	-4.7
Cneo AK release	nt	2.5	nt	3.3	20.0
miR-122 sensor	157.9*	-9.6[16.7 µM]	-6.4	2.3	152.2*
